Measured values taken from publication PMC11206246, “Cyclosporin A-Based PROTACs Can Deplete Abundant Cellular Cyclophilin A without Suppressing T Cell Activation” (Molecules, 2024).

Chains of the proteins cited; added tags and fusions are not shown.
UniProt P62937, whole entry: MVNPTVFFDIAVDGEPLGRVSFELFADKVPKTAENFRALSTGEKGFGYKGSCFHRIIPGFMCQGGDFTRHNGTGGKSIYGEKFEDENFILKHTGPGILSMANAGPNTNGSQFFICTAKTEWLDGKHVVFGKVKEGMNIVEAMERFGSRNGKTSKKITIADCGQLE

Assays:
CypA [1] = biological target: T1, CypA (Homo sapiens, UniProt P62937); experiment: PPIase activity assay (IC50 determination); type: biochemical; conditions: PPIase activity of CypA, 4 nM CypA
PBMCs = experiment: PBMC toxicity assessment by FACS (Annexin V / 7-AAD); conditions: daily 1 µM for four days
cellular CypA = experiment: PPIase activity of the cell lysate of treated PBMCs; conditions: PBMC lysate, daily administration of 1 µM for four days versus single treatment
IFN-γ = IFN-γ ELISA of activated PBMC supernatants; conditions: activated PBMCs
CypA [2] = biological target: T1, CypA; experiment: CypA degradation in CD3/CD28-activated PBMCs (western blot); type: cell-based
CypA [3] = biological target: T1, CypA; experiment: Degradation of CypA in HDFn fibroblasts (western blot); type: cell-based; conditions: 8 h and 24 h
IL-2 = IL-2 ELISA of activated PBMC supernatants; conditions: activated PBMCs
[4] = daily treatment with 1 µM for four days

SMILES: CC[C@@H]1NC(=O)[C@H]([C@H](O)[C@H](C)CCCCCC(=O)NCCOCCOCCOCCOCCC(=O)Nc2cccc3c2C(=O)N(C2CCC(=O)NC2=O)C3=O)N(C)C(=O)[C@H](C(C)C)N(C)C(=O)[C@H](CC(C)C)N(C)C(=O)[C@H](CC(C)C)N(C)C(=O)[C@@H](C)NC(=O)[C@H](C)NC(=O)[C@H](CC(C)C)N(C)C(=O)[C@H](C(C)C)NC(=O)[C@H](CC(C)C)N(C)C(=O)CN(C)C1=O (stereo partly shown)
- IC50 (CypA [1]): 7.73 nM

SMILES: CC[C@@H]1NC(=O)[C@H]([C@H](O)[C@H](C)CCCCCC(=O)NCCOCCOCCOCCOCCC(=O)N[C@H](C(=O)N2C[C@H](O)C[C@H]2C(=O)NCc2ccc(-c3scnc3C)cc2)C(C)(C)C)N(C)C(=O)[C@H](C(C)C)N(C)C(=O)[C@H](CC(C)C)N(C)C(=O)[C@H](CC(C)C)N(C)C(=O)[C@@H](C)NC(=O)[C@H](C)NC(=O)[C@H](CC(C)C)N(C)C(=O)[C@H](C(C)C)NC(=O)[C@H](CC(C)C)N(C)C(=O)CN(C)C1=O
- percentage of apoptotic and necrotic cells compared to the DMSO control (PBMCs): almost no difference
- cytosolic PPIase activity (cellular CypA): further reduction in cytosolic PPIase activity
- production of IFN-γ (IFN-γ; [4]): neither a single treatment with 1 µM P3 nor the daily treatment with 1 µM P3 for four days affected the production of IFN-γ and IL-2
- production of IFN-γ (IFN-γ; single treatment with 1 µM): neither a single treatment with 1 µM P3 nor the daily treatment with 1 µM P3 for four days affected the production of IFN-γ and IL-2
- CypA degradation in activated PBMCs (CypA [2]; daily administration of 1 µM for four days versus single treatment): did not cause further degradation of the protein
- CypA degradation in activated PBMCs (CypA [2]; five healthy donors, single treatment): induced the degradation of CypA
- CypA degradation in fibroblasts (CypA [3]): best PROTACs in fibroblasts
- production of IL-2 (IL-2; [4]): neither a single treatment with 1 µM P3 nor the daily treatment with 1 µM P3 for four days affected the production of IFN-γ and IL-2
- production of IL-2 (IL-2; single treatment with 1 µM): neither a single treatment with 1 µM P3 nor the daily treatment with 1 µM P3 for four days affected the production of IFN-γ and IL-2
